Data on two molecules can be found in ChEMBL document CHEMBL3271947, “Improved delivery through biological membranes. 3. Delivery of N-methylpyridinium-2-carbaldoxime chloride through the blood-brain barrier in its dihydropyridine pro-drug form” (1976).

The test system of assay [1] is Mus musculus. Kind of assay: Protection against phospholine iodide-induced toxicity in white mouse assessed as survival at 50 mg/kg administered 10 mins prior to phospholine iodide challenge.
In assay [2] the test system is Mus musculus. In words: Reactivation of AChE in ICR mouse brain at 40 mg/kg, iv administered 2 hrs post DFP challenge measured after 30 to 120 mins relative to control.

The source made the active and inactive calls. No cut-off for these calls is given here.

Consider `C[n+]1ccccc1C=NO`, for which, in assay [1], the outcome was Active.
Consider `CN1CC=CC=C1/C=N/O`, for which the outcome in assay [2] and in assay [1] was Active.
